The values below come from patent US10099995B2 (Cole Research and Design, LLC, priority 2015, dated 2018).

Data set [1] can be described thus: Comparative solubility in pH 7.4 PBS buffer by HPLC. The settings on record: for Solubility: 4 mg/mL sample, filtered, HPLC. As to the method:
Two 4 mg samples of each compound were weighed.
The first sample was used to determine solubility. The sample was mixed with 1 mL of pH 7.4 phosphate buffered saline (PBS) buffer solution to produce a 4 mg/mL solution. The solution was vortexed and filtered to remove undissolved particles. The filtered solution was then diluted in pH 7.4 buffer in triplicate and stored in a refrigerator to reduce hydrolysis. The solutions were allowed to sit at room temperature for 5 minutes and then were analyzed by HPLC.
The second sample was used to prepare a calibration curve in ethanol. Calibrators were made based on expected solubility. After visually inspecting solubility in the buffer, the calibration curve was determined in order to include points above and below the expected concentration. The calibrators were stored in a refrigerator until ready for analysis by HPLC.

A short description of data set [2]: hydrolysis observed during the solubility study. The note with it: pH 7.4 buffer, during HPLC solubility analysis.

resveratrol di-valinate: the values for the Solubility result in data set [1] and in data set [1] (listed as resveratrol di-valinate) were “Not soluble” and “insoluble”, respectively.

resveratrol tri-valinate-hemisuccinate: in data set [1], the “solubility as compared to resveratrol” value is “improved solubility” and the Solubility came out at 201 µg/mL. Besides, the hydrolysis result in data set [2] is recorded as “slightly hydrolyzed”.
